This assay concerns the target Jack bean urease (Canavalia ensiformis, UniProt P07374). The assay is described as follows: In vitro urease inhibition assay (indophenol method). In kind it is biochemical.

Each structure is given as a SMILES string.

Data on 1 molecule can be found in article PMC9217576, “Urease and α-Chymotrypsin Inhibitory Activities and Molecular Docking Studies of Alkaloids Isolated from Medicinal Plant Isatis minima Bunge” (Evidence-based Complementary and Alternative Medicine : eCAM, 2022).

Regarding `O=C1/C(=c2\c3ccccc3n3c(=O)c4ccccc4nc23)Nc2ccccc21` [Candidine], the “inhibitory activity against Jack bean urease (in words)” value is reported as “significant inhibitory activity”. Besides, the half-inhibitory concentration (IC50) (read-out: Urease IC50 ± SEM (Jack bean urease), SEM of five determinations, pH 6.8, 30°C) amounted to 68.2 µM.
